Laboratory results as given in US20080308744A1, “Serum Albumin Conjugated to Fluorescent Substances for Imaging” (Beth Israel Deaconess Medical Center, priority 2003, published 2008).

Key:
[1] = test system: sentinel lymph node; assay: Intraoperative near-infrared fluorescent sentinel lymph node mapping; assay type: in vivo, pig
Description: Animal protocols were in accordance with Institutional Animal Care and Use Committee Guidelines. Adult male Sprague Yorkshire pigs of 35 kg were used. After anesthesia, 100 μL of 10 μM (1 nmol) HSA800, CW800, ICG, ICGHSA, 4 μM colHSA800 or 0.4 μM QDs in PBS, pH7.8 were injected into the thigh intradermally, and into the parenchyma of the intestine and lung, and werewas monitored in real time with the NIR fluorescence imaging system.
In order to verify the availability of those contrast agents in vivo, we operated sentinel lymph node (SLN) mapping to the pig. […] Although the inguinal lymph nodes are located under the subdermal tissue, we could easily identify the SLN with NIR guidance. […] Compared to other organic agents, certain amount of HSA800 injected entered the lymphatic channel and stayed bright for more than 1 hour.

[2] = Physical and optical properties: net charge, extinction coefficient; assay type: physicochemical; conditions: pH 7.4
Excerpt: (§1) The optical and physical properties of disulfonated indocyanine green (ICG, 775 Da), 800CW, 962 Da, ICG non-covalently associated with albumin (ICGHSA, 67 KDa), CW800-labeled human serum albumin (HSA800, 70 KDa), and CW800-labeled albumin nanocolloid (colHSA800, 7 MDa) were characterized in terms of optimal labeling ratio, relative fluorescent yield, hydrodynamic diameter, estimated net charge and excitation/emission wavelength maximum, and compared them to QDs (440 KDa). The performance of these agents in rat and pig model systems of SLN mapping for the skin, gastrointestinal tract and lung were also quantitated.

[3] = Fluorescence spectrometry: relative fluorescent yield of 800 nm contrast agents; assay type: physicochemical; conditions: same concentration (1 μM) of the molecule, FIG. 13B
Excerpt: as §1
All of the samples were diluted with PBS, pH7.8, or with 100% FBS according to absorbance at λmax using 1-cm path length quartz spectrometer cell, and excited at 770 nm. Fluorescence was measured by calculating the area under the curve of the intensity from 785 nm to 950 nm subtracting the fluorescence of control PBS, pH 7.8.

[4] = Quantum yield measurements; assay type: physicochemical; conditions: compared to QD
Description: Quantum yields of ICG, CW800, ICGHSA (mixture of same moles of ICG and HSA), HSA800, QDs and colHSA800 were measured in solution in PBS, pH 7.8 or in 100% FBS, by comparison to ICG in DMSO as a control (13%) under condition of matched fluorophore absorbance.

[5] = test system: retroperitoneal lymph nodes; assay: Lymph node mapping after injection into the groin area; assay type: in vivo, rat; conditions: after 1 hour, 5 nmol into the groin area

Substance	time agent stayed bright in the lymphatic channel ([1]; intestine, injected into parenchyma)	lymphatic channels and SLN visualised ([1]; skin, 100 μL of 10 μM intradermally in thigh)	performance in SLN mapping (fluorescent yield, lymphatic access, SLN retention, image guidance) ([1]; skin, intestine and lung)	net charge [2]	total fluorescence per molecule [3]	quantum yield ([4]; in FBS)	quantum yield ([4]; in PBS)	signal in the kidney or bladder (stability of conjugate) [5]
HSA800: CW800-labeled human serum albumin, 70 KDa	more than 1 hour	ultra-fine lymphatic channels flowing to a single SLN immediately after the injection	best performance of the organic contrast agents	more negatively charged	highest total fluorescence per molecule	rather higher	same as that of QD	
albumin: human serum albumin, unlabeled				−18				
NIR albumin: albumin covalently labeled with IRDye78 by reaction with its N-hydroxysuccinimide ester								virtually no signal
